Assay results: patent publication US20230009626A1 (ICHNOS SCIENCES S.A., priority 2018, published 2023)

The chains behind the UniProt entries cited, without tags or fusion partners.
UniProt Q92918, whole entry: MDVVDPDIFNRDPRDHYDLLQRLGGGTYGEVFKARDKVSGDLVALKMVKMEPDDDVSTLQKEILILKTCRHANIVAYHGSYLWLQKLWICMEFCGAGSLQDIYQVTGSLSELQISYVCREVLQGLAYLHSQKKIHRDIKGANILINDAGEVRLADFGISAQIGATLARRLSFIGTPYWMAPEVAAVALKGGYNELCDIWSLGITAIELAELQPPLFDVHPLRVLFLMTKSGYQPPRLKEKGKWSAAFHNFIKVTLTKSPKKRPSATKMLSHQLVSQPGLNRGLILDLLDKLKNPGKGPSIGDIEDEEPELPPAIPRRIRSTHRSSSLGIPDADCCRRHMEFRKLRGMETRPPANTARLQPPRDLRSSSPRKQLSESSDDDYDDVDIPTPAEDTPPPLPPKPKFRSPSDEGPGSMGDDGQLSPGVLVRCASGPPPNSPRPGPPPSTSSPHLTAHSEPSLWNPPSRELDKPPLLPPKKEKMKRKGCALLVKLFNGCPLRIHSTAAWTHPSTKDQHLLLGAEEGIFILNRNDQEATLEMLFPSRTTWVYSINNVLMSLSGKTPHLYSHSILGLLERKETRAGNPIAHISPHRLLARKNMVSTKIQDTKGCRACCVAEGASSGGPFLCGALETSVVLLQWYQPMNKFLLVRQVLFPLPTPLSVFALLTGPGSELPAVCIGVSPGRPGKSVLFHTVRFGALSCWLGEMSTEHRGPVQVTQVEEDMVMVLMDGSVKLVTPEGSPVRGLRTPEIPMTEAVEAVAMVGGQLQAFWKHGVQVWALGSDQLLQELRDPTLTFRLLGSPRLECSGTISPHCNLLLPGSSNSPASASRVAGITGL

Molecular target: HPK1 (MAP4K1) (Homo sapiens, UniProt Q92918)
Test: FRET Assay for HPK1 (MAP4K1): one step binding assay, displacement of labeled tracer
Source text: FRET Assay for HPK1 (MAP4K1):
This is a one step binding assay based on the binding and displacement of the labeled tracer, where compound addition is followed by addition of the anti-GST tagged europium (Eu) as the donor and Alexa Fluor-labeled tracer as the acceptor. Simultaneous binding of both the tracer and GST-antibody to the kinase domain of HPK1 results in a high degree of FRET (fluorescence resonance energy transfer) from the anti-GST tagged europium (Eu) fluorophore to the Alexa Fluor® 647 fluorophore on the kinase tracer and this signal is reduced in presence of the inhibitor that can be measured.
Test compounds or reference compounds such as Sunitinib (Sigma) were dissolved in dimethylsulfoxide (DMSO) to prepare 10.0 mM stock solutions and diluted to the desired concentration. The final concentration of DMSO in the reaction was 3% (v/v). […] After shaking for 5 min the reaction was further incubated for 1 hour at room temperature and this was kept at 4° C. and read on ARTEMIS reader as per the kit instructions (Thermo). The inhibition of test compound was calculated based on the FRET ratio of 665/620. The activity was calculated as percent of control reaction. IC50 values were calculated from dose response curve by nonlinear regression analysis using GraphPad Prism software. […]

- % Inhibition at 1 μM (1 μM compound, FRET ratio 665/620, percent of control): 78.55%
- IC50 (read-out: IC50 value, dose response curve, nonlinear regression): < 50 nM
Compound: C/C(Nc1ccn(C(C)(C)C#N)n1)=C1/C(=O)Nc2cnc(-c3cnccc3C)cc21
